The target of the experiment is Kappa-type opioid receptor (Cavia porcellus, UniProt P41144). Briefly: Displacement of [3H]-U69,593 from KOR in guinea pig brain membranes incubated for 30 mins by liquid scintillation counting. On the technique in general: In a radioligand displacement assay an active substance lowers the binding of a labelled ligand.

Chains of the proteins cited; added tags and fusions are not shown. Lines headed by an entry give the natural chain unless they say otherwise; changes in a name come on top.
UniProt P41144: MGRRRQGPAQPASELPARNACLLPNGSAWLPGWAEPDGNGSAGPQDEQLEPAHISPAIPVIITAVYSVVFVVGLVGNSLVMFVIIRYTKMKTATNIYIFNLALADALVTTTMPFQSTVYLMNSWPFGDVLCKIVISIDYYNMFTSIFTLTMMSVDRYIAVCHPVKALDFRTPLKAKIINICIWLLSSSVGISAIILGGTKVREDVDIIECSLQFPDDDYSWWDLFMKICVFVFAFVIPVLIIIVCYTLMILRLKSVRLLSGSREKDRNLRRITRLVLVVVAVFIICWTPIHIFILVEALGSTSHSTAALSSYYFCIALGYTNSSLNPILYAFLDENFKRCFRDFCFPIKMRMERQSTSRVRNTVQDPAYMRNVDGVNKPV

A word on the Ki: it is a dissociation constant, usually derived from enzyme kinetics or from competition with a known ligand. Read a low Ki as a stronger hold on the target. For `CN(C(=O)Cc1ccc(Cl)c(Cl)c1)C1CCCCC1N1CCCC1` (stereo unspecified), the Ki was determined as 0.27 nM.

For the origin of these results see ChEMBL document CHEMBL4613282, “Novel N-Substituted Benzomorphan-Based Compounds: From MOR-Agonist/DOR-Antagonist to Biased/Unbiased MOR Agonists” (ACS Med Chem Lett, 2020).
